High-throughput results (PubChem)
uPA generation – blocks generation of uPA at the cell surface. cell surface uPA generation assay, qHTS. Potency, µM (highest dose often 38.3 µM), hits mostly inhibitors. 330,000 tested, 0.31% active; active = well fitted inhibition curve with a large enough effect; inconclusive = small, poorly fitted or top-dose-only effect; inactive = no such curve, though single readings can be large or run the other way; tested in mouse RAW 264.7 cells; note: nearly all actives have a fitted effect of over 55% in size
TDP1 inh – blocks human tyrosyl-DNA phosphodiesterase 1; Q9NUW8; recombinant TDP1, AlphaScreen DNA substrate cleavage; Potency, µM (top dose mostly 130 µM), hits mostly inhibitors; 350,000 tested, 0.28% active; AID 485290; note: nearly all actives have a fitted effect of over 40% in size
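Compounds were preincubated with Tdp1 (1 nM final) for 15 min at room temperature before substrate (15 nM final) started a 5 min reaction; beads (10 ug/ml final) were then added for 10 min before AlphaScreen detection.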
TDP1 cell noCPT – qHTS for Inhibitors of human tyrosyl-DNA phosphodiesterase 1 (TDP1): qHTS in cells in absence of CPT. Potency, µM (titrated, usually from 46.2 µM), actives largely listed as inhibitors. 420,000 tested, 15% active. DT40 Tdp1-/- hTDP1 cells, no CPT, ATP luminescence, 48 h. AID 686978, 2013; note: nearly all actives have a fitted effect of over 55% in size
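Readout: luminescence from CellTiter-Glo after 30 min in the dark at RT. Cells: DT40 Tdp1-/- with stable hTDP1, 400/well. Exposure: compounds alone, ≥48 hr, 37 °C.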
DT40 TDP1 CPT – DT40-hTDP1 cell growth loss with CPT; chicken DT40 Tdp1-/-;hTDP1 cells + 20 nM CPT, ATP luminescence, 48 h; Potency, µM (titrated, usually from 46.2 µM), hits mostly inhibitors; 420,000 tested, 12% active; AID 686979; note: nearly all actives have a fitted effect of over 55% in size
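Chicken DT40 Tdp1-/- cells stably complemented with human TDP1 were seeded at 400 cells/well in medium containing 20 nM camptothecin, exposed to pin-transferred compounds, and grown at 37 °C for at least 48 hr. Viability was read as ATP luminescence.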
miR-21 reporter – miR-21 reporter, rising signal; HeLa miR-21 FLuc reporter, luciferase, 48 h; Potency, µM (titrated, usually from 38.3 µM); AID 2288; 340,000 tested, under 10 active; active = well fitted rising curve with a large enough effect; inconclusive = small, poorly fitted or top-dose-only effect; inactive = no such curve, though single readings can be large or run the other way;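 further: miR-21 action dims this reporter so a rising signal means less miR-21 action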
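Luminescence from a firefly luciferase reporter carrying a miR-21 binding site downstream, stably expressed under a CMV promoter in HeLa cells that make miR-21 endogenously, reports miRNA modulation after 48 h compound exposure up to approximately 40uM final.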
A number is an active result; – = inactive; ? = inconclusive; · = no result; [ ] = remark or other dose. An excerpt weighted towards active compounds, which were near 16% of everything screened. Unless noted, calls come from the whole dose curve; as a rule, active = well fitted curve in the direction sought with a large enough effect; inconclusive = small, poorly fitted or top-dose-only effect, or another doubt; inactive = no such curve, though single readings can be large; an effect the other way counts as inactive or inconclusive.

SMILES | uPA generation | TDP1 inh | TDP1 cell noCPT | DT40 TDP1 CPT | miR-21 reporter
CC1(C(=O)NCc2cccc3ccccc23)CCN1C(=O)C1(c2ccccc2)CCCC1 (stereo not drawn) | · | · | 20.6µM | 23.1µM | ·
CC1(C(=O)NCc2ccccc2Br)CCN1Cc1ccc2ccccc2c1 (stereo not drawn) | · | · | ? | 20.6µM | ·
CC1(C(=O)NCc2ccccc2Br)CCN1Cc1ccc(-c2ccccn2)cc1 (stereo not drawn) | · | · | 18.4µM | 14.6µM | ·
CCCCNC(=O)C1(C)CCCCN1C(=O)c1ccc(C#N)cc1 (stereo not drawn) | · | · | – | – | ·
Cc1cn(C2CCCO2)c(=O)nc1N (stereo not drawn) | – | · | – | ? | ·
CC(C)CC(=O)N1CCN(Cc2ccc3ccccc3c2)CC1 | – | · | ? | – | –
CC1(C(=O)NCc2cccc3ccccc23)CCN1Cc1ccc2ccccc2c1 (stereo not drawn) | · | · | 18.4µM | 18.4µM | ·
CC1(C(=O)NCc2cccc3ccccc23)CCN1Cc1cccc2c1OCO2 (stereo not drawn) | · | · | 14.6µM | 23.1µM | ·
CC(C)NC(=O)C1(C)CCCCN1Cc1ccc(OCc2ccccc2)cc1 (stereo not drawn) | · | · | 1.64µM | 2.31µM | ·
CC(C)CCNC(=O)C1(C)CCN1Cc1ccc2ccccc2c1 (stereo not drawn) | · | · | 23.1µM | ? | ·
CC(c1n[nH]c(=S)n1-c1ccccc1)N1CCCCC1 (stereo not drawn) | – | – | – | – | –
CCCCNC(=O)C1(C)CCCCCN1Cc1cccc2c(OC)cc(C(=O)OCC)cc12 (stereo not drawn) | · | · | 13µM | ? | ·
CCCCNC(=O)C1(C)CCCCN1C(=O)c1ccc(C)c(F)c1 (stereo not drawn) | · | · | – | – | ·
COc1ccc(-c2csc(NC(=O)C3CSC4(C)CCC(=O)N34)n2)cc1 (stereo not drawn) | – | – | – | – | ·
COc1ccc(-c2csc(NC(=O)C3CSC4(C)CCC(=O)N34)n2)c(OC)c1 (stereo not drawn) | – | –[0.505 µM] | 23.1µM | ? | ·
OCC1(Cc2cccc(F)c2)CCN(Cc2cccc3nccnc23)CC1 | – | – | – | – | –
CC(C)c1csc(CN2CCC(CO)(Cc3cccc(F)c3)CC2)n1 | – | – | 23.1µM | ? | –
C/C(=N\NC(=O)c1ccc(N(C)C)cc1)c1ccc(C)cc1C | – | – | ? | – | –
Oc1ccc2nnc3c(Br)cnn3c2c1 | – | · | – | – | –
COC(CSc1nc(N)c2c3c(sc2n1)CN(C)CC3)OC | – | · | ? | – | –
FC(F)(F)c1cccc(Nc2nc(N3CCOCC3)nc(N3CCOCC3)n2)c1 | – | – | ? | 13µM | –
c1ccc(Nc2nc(N3CCNCC3)nc(N3CCOCC3)n2)cc1 | – | – | ? | ? | –
BrC(/C=N/Nc1nc(N2CCOCC2)nc(N2CCOCC2)n1)=C/c1ccccc1 | – | – | 20.6µM | 16.4µM | –
c1ccc(Nc2nc(N3CCOCC3)nc(N3CCOCC3)n2)cc1 | – | – | 16.4µM | 16.4µM | –
CC(=C/c1ccccc1)/C=N/Nc1nc(N2CCCCC2)nc(N2CCCCC2)n1 | – | – | ? | – | –
SMILES | uPA generation | TDP1 inh | TDP1 cell noCPT | DT40 TDP1 CPT | miR-21 reporter
Oc1cccc(Nc2nc(N3CCOCC3)nc(N3CCOCC3)n2)c1 | – | · | 8.2µM | 5.17µM | –
Cc1cc(OCC(=O)Nc2sc3c(c2C#N)CCC(C)C3)ccc1Cl (stereo not drawn) | · | –[12.3 µM] | ? | – | –
COc1ccccc1C(=O)NC(=O)CSc1nnc2ccccn12 | – | – | – | – | ·
Cc1cccc(Nc2nc(Nc3cccc(C)c3)nc(N3CCOCC3)n2)c1 | · | · | 9.2µM | 14.6µM | –
COc1ccc(Nc2nc(N3CCOCC3)nc(N3CCOCC3)n2)cc1 | – | · | ? | – | –
Cc1ccc(Nc2nc(N3CCOCC3)nc(N3CCOCC3)n2)cc1C | – | – | 13µM | 13µM | –
Cc1cccc(Nc2nc(N3CCCCC3)nc(N3CCCCC3)n2)c1 | – | – | – | – | –
Cc1cccc(Nc2nc(N3CCOCC3)nc(N3CCOCC3)n2)c1 | – | – | ? | 9.2µM | –
CCOc1ccccc1C1C(C(=O)Nc2ccc(OC)cc2)=C(C)Nc2nc(CCCO)nn21 (stereo not drawn) | – | – | – | ? | –
CCOc1ccc(NS(=O)(=O)c2cc(NC(=O)CCNC(=O)c3ccco3)ccc2OC)cc1 | – | · | – | – | ·
CN1CC(=O)N2C(c3cccc([N+](=O)[O-])c3)c3[nH]c4ccccc4c3C[C@H]2C1=O (stereo partly drawn) | 0.398µM | · | 1.84µM | 1.03µM | –
O=C1[C@@H]2Cc3c([nH]c4ccccc34)C(c3ccc([N+](=O)[O-])cc3)N2C(=O)CN1C1CC1 (stereo partly drawn) | ? | · | 4.61µM | 2.59µM | –
O=C1[C@@H]2Cc3c([nH]c4ccccc34)C(c3cccc([N+](=O)[O-])c3)N2C(=O)CN1CCCO (stereo partly drawn) | – | · | – | – | –
CN1CC(=O)N2C(c3ccc(Cl)cc3)c3[nH]c4ccccc4c3C[C@H]2C1=O (stereo partly drawn) | 5.62µM | · | ? | 14.6µM | –
C=CCN1CC(=O)N2C(c3ccccc3)c3[nH]c4ccccc4c3C[C@H]2C1=O (stereo partly drawn) | – | · | 18.4µM | ? | –
O=C1[C@@H]2Cc3c([nH]c4ccccc34)C(c3ccccc3)N2C(=O)CN1C1CC1 (stereo partly drawn) | – | · | ? | ? | –
Cc1onc(-c2c(Cl)cccc2Cl)c1C(N)=S | – | – | – | – | –
NC(=O)c1ccc(-n2nnnc2SCC(=O)NC2CCCCC2)cc1 | – | – | – | – | –
CCN1C(=O)[C@@H]2Cc3c([nH]c4ccccc34)C(c3ccc(OC)cc3)N2C1=S (stereo partly drawn) | – | · | 14.6µM | ? | –
COc1ccc(C2c3[nH]c4ccccc4c3CC3C(=O)N(CCc4ccc(OC)c(OC)c4)CC(=O)N32)cc1 (stereo not drawn) | · | – | –[9.04 µM] | –[9.04 µM] | ·
Cc1cc(N2CCOCC2)ccc1/C=C1/SC(=O)NC1=O | – | – | ? | – | –
C=CC(C)N1C(=O)S/C(=C\c2ccc(N3CCOCC3)cc2C)C1=O (stereo not drawn) | – | – | 13µM | 20.6µM | –
CC(OC(=O)[C@@H](NC(=O)OCc1ccccc1)C(C)C)C(=O)Nc1ccc(N2CCOCC2)cc1 (stereo partly drawn) | – | · | ? | 20.6µM | ·
COc1cccc(-c2cc(NCc3ccccc3OC)ncn2)c1 | · | · | ? | 4.11µM | ·
COc1ccccc1CNc1cc(-c2ccccc2Cl)ncn1 | · | · | 14.6µM | 16.4µM | ·
COc1ccccc1CNc1cc(-c2ccccc2C(F)(F)F)ncn1 | · | · | 1.46µM | 1.3µM | ·
Cc1cnc(CNc2cc(-c3ccccc3C(F)(F)F)ncn2)cn1 | · | · | – | – | ·
